The record followed here is US20260335456A1, “ANTIBODY-DRUG CONJUGATE HAVING CAMPTOTHECIN-BASED DRUG LINKED TO ANTIBODY HAVING LOW ANTIGEN-BINDING AFFINITY THROUGH LINKER” (PINOTBIO, INC., priority 2022, published 2026).

The subject of test [1] is EGFR positive (MDA-MB-468) and negative (SW620) cells. The experiment in a line: In vitro assay of nimotuzumab/cetuximab ADCs in EGFR positive and negative cells. The format is cell-based. The conditions noted are these: FIG. 19.
The subject of the next test is MDA-MB-468 tumor model. Nature of the test: In vivo efficacy in MDA-MB-468 model (EGFR ADCs). More on the design: species or system mouse. The conditions noted are these: FIG. 23.

B1: Nimotuzumab ADC: nimotuzumab ADC of FIG. 19, linker-payload not stated in the text (conjugate, chains of the INN, looked up)
heavy: QVQLQQSGAEVKKPGSSVKVSCKASGYTFTNYYIYWVRQAPGQGLEWIGGINPTSGGSNFNEKFKTRVTITADESSTTAYMELSSLRSEDTAFYFCTRQGLWFDSDGRGFDFWGQGTTVTVSSASTKGPSVFPLAPSSKSTSGGTAALGCLVKDYFPEPVTVSWNSGALTSGVHTFPAVLQSSGLYSLSSVVTVPSSSLGTQTYICNVNHKPSNTKVDKKV[in this place human IgG1 Fc]
light: DIQMTQSPSSLSASVGDRVTITCRSSQNIVHSNGNTYLDWYQQTPGKAPKLLIYKVSNRFSGVPSRFSGSGSGTDFTFTISSLQPEDIATYYCFQYSHVPWTFGQGTKLQITRTVAAPSVFIFPPSDEQLKSGTASVVCLLNNFYPREAKVQWKVDNALQSGNSQESVTEQDSKDSTYSLSSTLTLSKADYEKHKVYACEVTHQGLSSPVTKSFNRGEC
modifications: drug conjugate, linker-payload unstated
B1: in test [1], the “discrimination of positive and negative cell lines / ADC performance” value was “did not show performance as an ADC”.

B2: Nimotuzumab-25-6: nimotuzumab ADC with linker-payload 25-6 (conjugate, chains of the INN, looked up)
heavy: QVQLQQSGAEVKKPGSSVKVSCKASGYTFTNYYIYWVRQAPGQGLEWIGGINPTSGGSNFNEKFKTRVTITADESSTTAYMELSSLRSEDTAFYFCTRQGLWFDSDGRGFDFWGQGTTVTVSSASTKGPSVFPLAPSSKSTSGGTAALGCLVKDYFPEPVTVSWNSGALTSGVHTFPAVLQSSGLYSLSSVVTVPSSSLGTQTYICNVNHKPSNTKVDKKV[in this place human IgG1 Fc]
light: DIQMTQSPSSLSASVGDRVTITCRSSQNIVHSNGNTYLDWYQQTPGKAPKLLIYKVSNRFSGVPSRFSGSGSGTDFTFTISSLQPEDIATYYCFQYSHVPWTFGQGTKLQITRTVAAPSVFIFPPSDEQLKSGTASVVCLLNNFYPREAKVQWKVDNALQSGNSQESVTEQDSKDSTYSLSSTLTLSKADYEKHKVYACEVTHQGLSSPVTKSFNRGEC
modifications: linker-payload 25-6
As for B2, the “tumor regression versus Nimotuzumab-19-1” value with MDA-MB-468 tumor model is recorded as “superior tumor regression than Nimotuzumab-19-1”.
